Experimental data taken from patent publication US20260216348A1, “IRAK DEGRADATION AGENT AND USE THEREOF” (Increland, priority 2023, published 2026).

Amino acid sequences for entries named in this document (tags omitted).
UniProt Q9NWZ3, whole entry: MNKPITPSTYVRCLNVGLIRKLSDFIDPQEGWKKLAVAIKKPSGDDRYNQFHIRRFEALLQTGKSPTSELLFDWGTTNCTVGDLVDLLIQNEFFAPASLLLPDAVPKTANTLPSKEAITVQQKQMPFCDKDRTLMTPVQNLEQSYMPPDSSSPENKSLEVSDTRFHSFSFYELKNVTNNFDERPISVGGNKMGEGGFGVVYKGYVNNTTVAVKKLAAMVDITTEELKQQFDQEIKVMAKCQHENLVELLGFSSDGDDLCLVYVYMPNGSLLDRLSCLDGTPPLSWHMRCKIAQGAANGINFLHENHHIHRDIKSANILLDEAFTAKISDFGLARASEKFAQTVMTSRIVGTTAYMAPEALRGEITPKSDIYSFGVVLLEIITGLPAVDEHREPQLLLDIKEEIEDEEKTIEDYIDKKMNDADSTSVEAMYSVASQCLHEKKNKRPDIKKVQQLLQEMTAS

Columns and labels:
[1] = system: LPS/IL-1β-induced IL-6 secretion in human peripheral blood mononuclear cells (PBMCs); experiment: Inhibition of LPS/IL-1β-induced IL-6 secretion in human PBMCs (IL-6 ELISA); settings: read-out: IC50, inhibition of LPS/IL-1β-induced secretion of IL-6 in PBMC cells; LPS 10 ng/mL + IL-1β 20 ng/mL, 24 h pre-incubation, 20 h stimulation
[2] = Pharmacokinetic experiment on SD rats (iv and intragastric)
IRAK4 = IRAK4 (Homo sapiens, UniProt Q9NWZ3); experiment: IRAK4 protein degradation in THP1 cells (Western blot); format: cell-based; settings: read-out: DC50, IRAK4 protein degradation in THP1 cells; THP-1 cells, 24 h
[3] = system: DSS-induced enteritis model; experiment: DSS-induced enteritis (colitis) model; settings: po, QD, Model 10.33 ± 1.11, Mean ± SD, n = 7
[4] = system: R848-induced IL-6 secretion in human peripheral blood mononuclear cells (PBMCs); experiment: Inhibition of R848-induced IL-6 secretion in human PBMCs (IL-6 ELISA); settings: read-out: IC50, inhibition of R848-induced secretion of IL-6 in PBMC cells; R848 2.5 μg/mL, 20 h pre-incubation, 24 h stimulation
[5] = Metabolic stability in human liver microsome; settings: NADPH, 60 min

For `CN(C)c1cc2nn([C@H]3CC[C@H](CN4CCC(n5cc6ccc(N7CCC(=O)NC7=O)cc6n5)CC4)CC3)cc2cc1NC(=O)c1cnn2cccnc12`, the IC50 [1] was 0.27 nM, the “Oral bioavailability Fobs” value ([2]; ig 5.00 mg/kg vs iv 1.00 mg/kg) was 27.7% and the AUCall ([2]; ig, 5.00 mg/kg) was 1353.75 ± 515.03 ng·h/mL. The AUCinf ([2]; ig, 5.00 mg/kg) was 1377.38 ± 512.87 ng·h/mL, the “Peak plasma concentration Cmax” value ([2]; ig, 5.00 mg/kg) was 466.67 ± 225.85 ng/mL and the AUCall ([2]; iv, 1.00 mg/kg) was 963.53 ± 123.07 ng·h/mL. For the same molecule, the AUCinf ([2]; iv, 1.00 mg/kg) was 995.74 ± 142.87 ng·h/mL, the “Peak plasma concentration Cmax” value ([2]; iv, 1.00 mg/kg) was 634.00 ± 138.79 ng/mL and the DC50 (IRAK4) was 3.03 nM. The DAI Score d 8 ([3]; 10 mpk) was 4.57 ····, the DAI Score d 8 ([3]; 20 mpk) was 3.71 ···· and the DAI Score d 8 ([3]; 40 mpk) was 3.14 ····. The IC50 [4] was 10.5 nM and the “Human liver microsome (t1/2, min)” value [5] was 145 min.
